Our source for the Kd values is patent publication US20250228855A1.

Chains of the proteins cited; added tags and fusions are not shown. Residues count along the entry.
UniProt P07814, 1007-1512 limits assumed: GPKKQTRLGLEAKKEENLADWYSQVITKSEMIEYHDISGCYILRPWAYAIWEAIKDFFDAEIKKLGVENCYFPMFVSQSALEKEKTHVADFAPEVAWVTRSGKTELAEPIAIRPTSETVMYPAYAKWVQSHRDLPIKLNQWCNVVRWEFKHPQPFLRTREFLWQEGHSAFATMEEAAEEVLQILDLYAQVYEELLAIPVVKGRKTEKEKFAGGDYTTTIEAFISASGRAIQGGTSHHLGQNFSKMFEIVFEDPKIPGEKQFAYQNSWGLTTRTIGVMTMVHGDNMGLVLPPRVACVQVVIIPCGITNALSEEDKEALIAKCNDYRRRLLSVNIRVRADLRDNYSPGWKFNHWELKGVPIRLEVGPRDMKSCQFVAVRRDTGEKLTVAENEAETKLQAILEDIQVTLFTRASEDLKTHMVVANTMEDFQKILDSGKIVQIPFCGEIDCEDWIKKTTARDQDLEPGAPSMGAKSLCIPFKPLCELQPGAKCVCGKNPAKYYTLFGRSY

For the assay, the target named is HsProRS (Homo sapiens, UniProt P07814). As to the kind of experiment: TR-FRET ligand displacement assay with tracer MAT379, HsProRS. Type of assay: binding. Background: Time-resolved FRET reads energy transfer from a long-lived donor to a nearby acceptor.
Setting [1] is: read-out: HsProRS (KD [nM]) +proline, 100 μM Pro.
[2] abbreviates: read-out: HsProRS (KD [nM]) −, no proline, no ATP.
The mark [3] stands for this setting: read-out: HsProRS (KD [nM]) +proline, 100 μM Pro, tested form: HBr.
The mark [4] stands for this setting: read-out: HsProRS (KD [nM]) −, no proline, no ATP, tested form: HBr.

Like-named read-outs stand apart in the source and are kept apart here.

Turning to `CC(C)(C)OC(=O)N1CCC[C@H](OC(=O)NS(=O)(=O)NC2CCN(C(=O)Nc3nccnc3C(=O)NC3Cc4ccccc4C3)CC2)[C@H]1CC(=O)Cn1cnc2cc(Br)c(Cl)cc2c1=O` (relative stereo), the Kd by setting is: under setting [1], 658 nM; under setting [2], 216 nM.
For `CC(C)(C)OC(=O)N1CCC[C@H](OC(=O)NS(=O)(=O)NCC2CCN(C(=O)Nc3nccnc3C(=O)NC3Cc4ccccc4C3)CC2)[C@H]1CC(=O)Cn1cnc2cc(Br)c(Cl)cc2c1=O` (relative stereo), in that order: 609 nM and 720 nM.
Regarding `O=C(C[C@H]1NCCC[C@@H]1OC(=O)NS(=O)(=O)NC1CCN(C(=O)Nc2nccnc2C(=O)NC2Cc3ccccc3C2)CC1)Cn1cnc2cc(Br)c(Cl)cc2c1=O` (relative stereo), the Kd was determined as 6.63 nM under setting [3] and 0.367 nM under setting [4].
The matching figures for `O=C(C[C@H]1NCCC[C@@H]1OC(=O)NS(=O)(=O)NCC1CCN(C(=O)Nc2nccnc2C(=O)NC2Cc3ccccc3C2)CC1)Cn1cnc2cc(Br)c(Cl)cc2c1=O` (relative stereo): 3.49 nM and 0.35 nM.

A word on the Kd: it is the equilibrium constant for the complex coming apart.
